Test results published in patent US20190321291A1, “3D Printing and Drug Delivery” (Biogelx Limited, priority 2016, published 2019).

Test: Drug release assay from Fmoc-FF/S hydrogel into PBS release buffer, HPLC analysis
Assay type: physicochemical
Conditions: for Concentration (ug/mL) Control: control solution in PBS
Procedure: (§1) An 1100 Series high-performance liquid chromatography pump (Agilent, USA) was used for the analysis which was performed using acetonitrile with 0.1% TFA and water with 0.1% TFA. […] This concentration was kept constant until 16 mins; after that the gradient was decreased, reaching 40% (v/v) acetonitrile in water at 19 mins. The data was then processed manually using the software ‘Agilent Chemstation.’
The triplicate samples of release buffer were analysed by HPLC, and for the peaks corresponding to each model drug compound the peak area was measured. The average peak area was recorded, and using a standard curve prepared for each compound the concentration of each was determined.
At each of the specified time points the release buffer remaining in the wells was transferred to HPLC vials and stored at 4° C. until HPLC analysis was performed.
as §1, with “mins when” for “mins; after that”, “decreased to” for “decreased, reaching”
The triplicate samples of release buffer were analysed by HPLC, and for the peaks corresponding to each model drug compound the peak area was measured. The average peak area was recorded, and using standard curve prepared for each compound the concentration of each was determined.

Concentration (ug/mL) Gel (30 min, drug in Fmoc-FF/S gel, release buffer PBS 37° C.): 1.82 µg/mL | Concentration (ug/mL) Gel (3 h, Fmoc-FF/S gel): 3.10 µg/mL | Concentration (ug/mL) Control (3 h): 32.25 µg/mL | Concentration (ug/mL) Control (6 h): 0.47 µg/mL | Concentration (ug/mL) Control (9 h): 0.04 µg/mL | Concentration (ug/mL) Gel (24 h, Fmoc-FF/S gel): 5.11 µg/mL | Concentration (ug/mL) Control (24 h): 0 µg/mL | Concentration (ug/mL) Gel (48 h, Fmoc-FF/S gel): 6.22 µg/mL | Concentration (ug/mL) Control (48 h): 0 µg/mL | Concentration (ug/mL) Gel (72 h, Fmoc-FF/S gel): 4.15 µg/mL | Concentration (ug/mL) Control (72 h): 0 µg/mL | Concentration (ug/mL) Gel (5 d, Fmoc-FF/S gel): 2.17 µg/mL | Concentration (ug/mL) Control (5 d): 0 µg/mL | Concentration (ug/mL) Gel (7 d, Fmoc-FF/S gel): 2.98 µg/mL | Concentration (ug/mL) Control (7 d): 0 µg/mL
Compound: C=C[C@H]1C[N@]2CC[C@H]1C[C@@H]2[C@@H](O)c1ccnc2ccc(OC)cc12 [Quinidine]
